± gives the expanded uncertainty stated by the source.
Test: activity coefficient (dimensionless); of the first substance listed, at infinite dilution; xn = mol fraction of the nth substance listed
Settings: Liquid, Chromatography, x1 = 0

CCCCOCCCC [dibutyl ether] + CCn1cc[n+](C)c1.N#C[B-](C#N)(C#N)C#N
activity coefficient (298.15 K): 20.6 ± 1.4
activity coefficient (308.15 K): 19.2 ± 1.3
activity coefficient (318.15 K): 18.4 ± 1.3
activity coefficient (328.15 K): 17.2 ± 1.2
activity coefficient (338.15 K): 16.4 ± 1.1
activity coefficient (348.15 K): 15.7 ± 1.1
activity coefficient (358.15 K): 14.9 ± 1

Source: the NIST ThermoML archive (doi:10.1016/j.jct.2011.02.012)
